The values that follow come from patent US20220054649A1, “ANTIBODY-DRUG CONJUGATES” (SPIREA LIMITED, priority 2018, published 2022).

The test deals with SKBR3 cells. The test is described as follows: Cell viability assay (CellTitre Glo luminescence) on SKBR3 cells. It is filed as cell-based. Conditions: SKBR3 breast cancer cell line; 72 h; concentration given as pM of protein; read-out: estimated protein concentration IC50. The protocol: MMAE polyamide Trastuzumab ADC was tested for activity against SKBR3 cells (breast cancer cell line) (see FIG. 13). The sample was added to cells for 72 h before application of the CellTitre Glo luminescence reagent. Concentration is given as pM of protein.

With MMAE polyamide Trastuzumab ADC, the IC50 is 158 pM.
